Assay results published in patent US9527820B1, “Diethylammonium salts of phenyl-substituted thiobarbituric acid as anti-diabetic agents” (KING SAUD UNIVERSITY, priority 2016, dated 2016).

Molecular target: α-glucosidase
Experiment: in vitro α-glucosidase enzyme inhibition activity
Settings: read-out: α-Glucosidase Inhibition (IC50 in μM), ± SEM

| Substance | IC50 [µM] |
| --- | --- |
| Diethylammonium 5-((2,4-dichlorophenyl)(1,3-diethyl-6-hydroxy-4-oxo-2-thioxo-1,2,3,4-tetrahydropyrimidin-5-yl)methyl)-1,3-diethyl-6-oxo-2-thioxo-1,2,3,6-tetrahydropyrimidin-4-olate [Compound 3i] | 19.4 ± 1.84 |
| Diethylammonium 5-((3-bromophenyl)(1,3-diethyl-6-hydroxy-4-oxo-2-thioxo-1,2,3,4-tetrahydropyrimidin-5-yl)methyl)-1,3-diethyl-6-oxo-2-thioxo-1,2,3,6-tetrahydropyrimidin-4-olate [Compound 3e] | 31.5 ± 0.16 |
